The entries are a selection whose mix differs from that of the whole data set. Some salts or complexes appear as unconnected parts, following the source record. The source made the active and inactive calls.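 How the source made its calls: active means percent activation above the mean of all tested compounds plus 3 SD (cut at about 19% in these data); inactive means the rest.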
Molecular target: cAMP-dependent protein kinase type I-alpha regulatory subunit (Bos taurus) + cAMP-dependent protein kinase catalytic subunit beta (Mus musculus) (UniProt P00514+P68181)
Experiment: compounds dissociating PKAc from R1A subunit – biochemical, fluorescence polarization, Cy5-IP20, bovine R1A, mouse PKAc, primary screen (AID 504707);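 further: higher means more PKAc released from R1A so a rise in polarization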
Conditions: PKA-R1A dissociation, at 11.4 µM, active compounds read high, scaled: DMSO 0%, 113 µM cGMP 100%

SMILES | activation
CCOP(C)(=S)SCC(=O)NC(C)(CC)C(=O)O (configuration not stated) | inactive: 1.33%
CP(=O)(Nc1ccc(SC(F)(F)F)cc1)Oc1ccc(F)cc1 (configuration not stated) | inactive: -3.38%
Cc1ccccc1NP(C)(=O)Nc1ccccc1C | inactive: -1.25%
CP(=O)(Nc1ccc2c(c1)OCCO2)Oc1ccccc1 (configuration not stated) | inactive: 5.07%
COc1ccc(NP(C)(=O)Oc2ccccc2OC)cc1 (configuration not stated) | inactive: 2.58%
CN(C)CCOC(=O)C(O)(c1ccccc1)C1CCCCC1 (configuration not stated) | inactive: -1.61%
COc1ccc(OP(C)(=O)Nc2cccc(Br)c2)cc1 (configuration not stated) | inactive: -12.6%
Cc1c(C(c2ccc3c(c2)OCO3)c2c(C)n(C)n(-c3ccccc3)c2=O)c(=O)n(-c2ccccc2)n1C.O=[N+]([O-])c1cc([N+](=O)[O-])c(O)c([N+](=O)[O-])c1 | inactive: -1.57%
Cc1cc(-c2cccc3ccccc23)c(C)cn1.O=[N+]([O-])c1cc([N+](=O)[O-])c(O)c([N+](=O)[O-])c1 | inactive: -12.1%
O=[N+]([O-])c1cc([N+](=O)[O-])c(NCC2CCS(=O)(=O)C2)c([N+](=O)[O-])c1 (configuration not stated) | inactive: 3.54%
O=[N+]([O-])c1ccc(OP2(=O)COCCO2)cc1 (configuration not stated) | inactive: -4.69%
COc1ccc(OP(C)(=O)Nc2ccc(SC(F)(F)F)cc2)cc1 (configuration not stated) | inactive: 11.1%
CCOC(=O)c1ccc(NP(C)(=O)Oc2ccc(F)cc2)cc1 (configuration not stated) | inactive: -4.24%
CCCCCOc1ccc(NP(C)(=O)Oc2ccc(Cl)cc2Cl)cc1 (configuration not stated) | inactive: -12.6%
O=[N+]([O-])c1cc([N+](=O)[O-])c(OC2CCCCC2O)c([N+](=O)[O-])c1 (configuration not stated) | inactive: -3.56%
CP(=O)(Nc1ccccc1)Oc1ccc(F)cc1 (configuration not stated) | inactive: -8.94%
CCN(CC)CCCOC(=O)C(O)(c1ccccc1)C1CCCCC1 (configuration not stated) | inactive: -3.78%
Cc1c([N+](=O)[O-])cc([N+](=O)[O-])c(Br)c1[N+](=O)[O-] | inactive: -4.17%
CC(C)c1ccc(OP(C)(=O)Nc2ccc(SC(F)(F)F)cc2)cc1 (configuration not stated) | inactive: -21.7%
CP(=O)(Nc1ccccc1F)Oc1ccccc1 (configuration not stated) | inactive: -1.38%
O=[N+]([O-])c1cc([N+](=O)[O-])c(Nc2ccc(Cl)cc2)c([N+](=O)[O-])c1 | inactive: -0.38%
COc1ccc2c(c1O)-c1c(O)c(OC)cc3c1[C@H](C2)[N+](C)(C)CC3.O=[N+]([O-])c1cc([N+](=O)[O-])c([O-])c([N+](=O)[O-])c1[O-] | inactive: -1.85%
O=C(OCCN1CCN(CCOCc2ccccc2)CC1)C(O)(c1ccccc1)c1ccccc1 | inactive: -0.16%

SMILES | activation
O=C(OC1CN2CCC1CC2)c1ccc([N+](=O)[O-])cc1 (configuration not stated) | inactive: -9.53%
CN(C)CCOC(=O)C(O)(c1ccccc1)C1CCCC1 (configuration not stated) | inactive: -9.02%
COc1ccc(OP(C)(=O)Nc2ccccn2)cc1 (configuration not stated) | inactive: 12.2%
COc1ccccc1OP(C)(=O)Nc1ccc(Br)cc1 (configuration not stated) | inactive: 4.72%
CCc1ccc(OP(C)(=O)O)cc1 | inactive: -10.1%
CP(=O)(Nc1ccccn1)Oc1ccccc1 (configuration not stated) | inactive: -0.91%
COc1ccccc1OP(C)(=O)Nc1ccc(C)cc1C (configuration not stated) | inactive: 7.69%
O=[N+]([O-])c1cc([N+](=O)[O-])c(Nc2ccccn2)c([N+](=O)[O-])c1 | inactive: 0.1%
Cc1c(NP(C)(=O)Oc2ccc(C(C)C)cc2)c(=O)n(-c2ccccc2)n1C (configuration not stated) | inactive: 7.22%
COc1ccc(OP(C)(=O)Nc2ccccc2Br)cc1 (configuration not stated) | inactive: -17%
COc1ccccc1OP(C)(=O)Nc1ccc(C)c(C)c1 (configuration not stated) | inactive: -0.81%
O=C1C(O)=C([N+](=O)[O-])C(=O)C(O)=C1[N+](=O)[O-] | inactive: 6.25%
Cc1cc(C)cc(OP(C)(=O)Nc2cccc(C(F)(F)F)c2)c1 (configuration not stated) | inactive: -2.47%
CP(=O)(OCCOc1ccccc1)OCCOc1ccccc1 | inactive: -4.25%
CCCCCCCCCCCCCCCC1C[N+](C)(C)CCOP(C)(=O)O1 (configuration not stated) | inactive: -10.2%
CP(=O)(Nc1ccc(Cl)cc1Cl)Oc1ccccc1 (configuration not stated) | inactive: -3.8%
CP(=O)(OC12CC3CC(CC(C3)C1)C2)OC12CC3CC(CC(C3)C1)C2 | inactive: -9.45%
CCOC(=O)c1ccc(NP(C)(=O)Oc2ccc(Cl)cc2)cc1 (configuration not stated) | inactive: 3.25%
CP(=O)(Oc1ccccc1)N1CCOC1=O (configuration not stated) | inactive: -2.86%
CCc1ccc(OP(C)(=O)Nc2cccnc2)cc1 (configuration not stated) | inactive: 1.68%
COc1ccccc1OP(C)(=O)Nc1c(C)n(C)n(-c2ccccc2)c1=O (configuration not stated) | inactive: 3.28%
O=C(OCCCN1CCCC1)C(O)(c1ccccc1)C1CCCCC1 (configuration not stated) | inactive: -9.41%
CCN(CC)CC(O)COC(=O)C(O)(c1ccccc1)C1CCCCC1 (configuration not stated) | inactive: -1.42%

SMILES | activation
COc1ccc(OP(C)(=O)Nc2ccc(Br)cc2)cc1 (configuration not stated) | inactive: -0.52%
CN(C)C(=O)c1c([N+](=O)[O-])cc([N+](=O)[O-])cc1[N+](=O)[O-] | inactive: -14%
CP(=O)(Nc1ccc(Cl)cc1)Oc1ccc(F)cc1 (configuration not stated) | inactive: -4.46%
CC(C)(C)c1ccc(OP(C)(=O)O)cc1 | inactive: -5.36%
COc1ccccc1OP(C)(=O)Nc1ccccc1Br (configuration not stated) | inactive: -3.31%
CCc1ccc(OP(C)(=O)N2CCN(c3ccc([N+](=O)[O-])cc3)CC2)cc1 (configuration not stated) | inactive: -4.51%
CP(=O)(NC(=O)Nc1ccccc1)Oc1ccccc1 (configuration not stated) | inactive: -10.2%
Cc1cc(C)cc(OP(C)(=O)Nc2ccc(SC(F)(F)F)cc2)c1 (configuration not stated) | inactive: -19.1%
Cc1ccc(Nc2c([N+](=O)[O-])cc([N+](=O)[O-])cc2[N+](=O)[O-])cc1 | inactive: -7.17%
Cc1cccc(C)c1OP(C)(=O)Nc1ccc(SC(F)(F)F)cc1 (configuration not stated) | inactive: -1.88%
CP(=O)(Oc1ccccc1)OC(c1ccccc1)C(F)(F)F (configuration not stated) | inactive: -7.69%
CP(=O)(Nc1ccccn1)Oc1ccc(Cl)cc1 (configuration not stated) | inactive: 8.44%
CCOP(C)(=S)SCC(=O)NC(C)C(=O)O (configuration not stated) | inactive: 4.91%
CCOC(=O)c1ccc(NP(C)(=O)Oc2ccc(OC)cc2)cc1 (configuration not stated) | inactive: 11.2%
COc1ccccc1OP(C)(=O)Nc1ccccc1 (configuration not stated) | inactive: -4.71%
CP(=O)(Nc1ccccc1Br)Oc1ccccc1 (configuration not stated) | inactive: 2.43%
CP(=S)(Nn1cnnc1)Oc1ccccc1 (configuration not stated) | inactive: -8.7%
CC(C)(C)c1ccc(OP(C)(=O)Nc2ccc(SC(F)(F)F)cc2)cc1 (configuration not stated) | inactive: 9.18%
Cc1cccc(C)c1OP(C)(N)=O (configuration not stated) | inactive: 5.54%
O=[N+]([O-])c1ccc2c(c1)C=Nc1ccccc1O2 | inactive: -7.34%
O=[N+]([O-])c1cc([N+](=O)[O-])c(Nc2cccnc2)c([N+](=O)[O-])c1 | inactive: 4.75%
COc1ccccc1OP(C)(=O)Nc1cc(Cl)ccc1C (configuration not stated) | inactive: 13.6%
COc1ccc(OP(C)(=O)Nc2cccc(F)c2)cc1 (configuration not stated) | inactive: 0.96%

SMILES | activation
Cc1cc(C)cc(OP(C)(N)=O)c1 (configuration not stated) | inactive: 2.81%
CCOC(=O)c1ccc(NP(C)(=O)Oc2ccccc2)cc1 (configuration not stated) | inactive: -6.95%
COc1ccccc1OP(C)(=O)Nc1ccc(C)cc1 (configuration not stated) | inactive: 2.89%
Cc1ccc(NP(C)(=O)Oc2ccccc2)c(C)c1 (configuration not stated) | inactive: 6.49%
CCN(CC)CCCOC(=O)C(O)(c1ccccc1)c1ccccc1 | inactive: -8.77%
Cc1cc(C)cc(OP(C)(=O)Nc2ccc(C)cc2C)c1 (configuration not stated) | inactive: 7.98%
CCOC(=O)c1ccc(NP(C)(=O)Oc2cc(C)cc(C)c2)cc1 (configuration not stated) | inactive: 5.52%
COc1ccccc1OP(C)(=O)Nc1cccc(Br)c1 (configuration not stated) | inactive: -5.23%
CP(=O)(Nc1cccc(Br)c1)Oc1ccccc1 (configuration not stated) | inactive: -3.87%
Cc1cc(C)cc(OP(C)(=O)Nc2ccccn2)c1 (configuration not stated) | inactive: -0.09%
Cc1ccc(C)c(NP(C)(=O)Oc2ccccc2)c1 (configuration not stated) | inactive: -9.88%
O=C(O)c1cccc(Nc2c([N+](=O)[O-])cc([N+](=O)[O-])cc2[N+](=O)[O-])c1 | inactive: -1.03%
CC1=NCCc2c1[nH]c1ccccc21.O=[N+]([O-])c1cc([N+](=O)[O-])c(O)c([N+](=O)[O-])c1 | inactive: -10.2%
O=[N+]([O-])c1cc([N+](=O)[O-])c(Nc2nnnn2CCO)c([N+](=O)[O-])c1 | inactive: -0.83%
CC1=C2N=C(C=C3N=C(C(C)=C4[N-][C@@](C)([C@@H]5N=C1[C@](C)(CCC(=O)NC[C@@H](C)OP(=O)([O-])O[C@H]1[C@@H](O)[C@@H](n6cnc7cc(C)c(C)cc76)O[C@@H]1CO)[C@H]5CC(N)=O)[C@@](C)(CC(N)=O)[C@@H]4CCC(N)=O)[C@@](C)(CC(N)=O)[C@@H]3CCC(N)=O)C(C)(C)[C@@H]2CCC(N)=O.[C-]#N.[Co+3] | inactive: -8.79%
CCOC(=O)C(CC)C1=NC(C)(C)Cc2ccccc21.O=[N+]([O-])c1cc([N+](=O)[O-])c(O)c([N+](=O)[O-])c1 (configuration not stated) | inactive: 0.72%
CP(=O)(Nc1ccc(SC(F)(F)F)cc1)Oc1ccccc1 (configuration not stated) | inactive: 13.5%
CCCOc1ccc(NP(C)(=O)Oc2ccc(Cl)cc2)cc1 (configuration not stated) | inactive: -0.42%
COc1ccccc1OP(C)(=O)Nc1c(C)cccc1C (configuration not stated) | inactive: 6.78%
CN1CCCCC1COC(=O)C1(O)c2ccccc2CCc2ccccc21 (configuration not stated) | inactive: 1.02%
O=[N+]([O-])c1cc([N+](=O)[O-])c(-n2nnc3ccccc32)c([N+](=O)[O-])c1 | inactive: 6.41%
Cc1nc2ccc3ccccc3c2s1.O=[N+]([O-])c1cc([N+](=O)[O-])c(O)c([N+](=O)[O-])c1 | inactive: 4.68%
O=[N+]([O-])c1cc([N+](=O)[O-])c(-c2cnn(-c3ccccc3)c2)c([N+](=O)[O-])c1 | inactive: 4.42%

Source: PubChem BioAssay AID504707 (The Scripps Research Institute Molecular Screening Center, 2011)
